Test results taken from ChEMBL document CHEMBL3865850, “Discovery of Potent and Selective Leads against Toxoplasma gondii Dihydrofolate Reductase via Structure-Based Design” (ACS Med Chem Lett, 2016).

Assay: Selectivity ratio of IC50 for human DHFR to IC50 for Toxoplasma gondii DHFR

`Nc1ncc(N2CCN(c3cccc(-c4ccccc4)c3)CC2)c(N)n1` showed a Ratio IC50 of 89.
